What all share (assay): ELISA
Experiment [1] deals with T1, extracellular domain of human CD47 (HuCD47 ECD) (human, UniProt Q08722 19-139).
Experiment [2] deals with T2, extracellular domain of cynomolgus CD47 (CyCD47 ECD) (cynomolgus).
T2 chain: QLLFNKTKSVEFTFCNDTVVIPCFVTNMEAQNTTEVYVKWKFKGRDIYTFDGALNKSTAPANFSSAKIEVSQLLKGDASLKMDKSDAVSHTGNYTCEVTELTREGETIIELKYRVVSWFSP

Experiment [3] addresses T1, extracellular domain of human CD47 …. The source holds these as a separate data set.

Two molecules from PMC12302720 (2025) can be followed below.

B1: 1C8, rabbit-derived anti-CD47 monoclonal antibody (rabbit variable regions on human IgG4PE and Igκ) (antibody, V domains shown)
VH: QSVKESEGGLFKPTDTLTLTCTVSGFSLSSYAISWVRQAPGKGLEYIGYISSIGDPYYASWVNGRFTISRTSSTVTLKMTSLTAADTATYFCARSYPGNGDLGRLDIWGQGTLVTVSS
VL: DPMLTQTPSPVSAAVGGTVSISCQSSQSVYRNKYLSWYQQKPGQPPKLLIYYASTLASGVPSRFKGSGSGTQFTLTISDVQCDDAATYYCAGDYSDDIENAFGGGTEVVVK
The molecule B1 registered an IC50 in experiment [1] of 2.26 µg/mL. Moreover, the EC50 is 0.31 µg/mL in experiment [2] and 0.39 µg/mL in experiment [3].

B2: Hu1C8, humanized anti-CD47 monoclonal antibody (antibody, V domains shown)
VH: QSVKESGGGLFQPGGSLRLSCSVSGFSLSSYAISWVRQAPGKGLEYIGYISSIGDPYYADWVKGRFTISRDSSTVYLQMTSLRAEDTAVYFCARSYPGNGDLGRLDIWGQGTTVTVSS
VL: DPMLTQSPSFLSASVGDRVTITCQSSQSVYRNKYLSWYQQKPGKAPKLLIYYASTLASGVPSRFSGSGSGTEFTLTISSLQPEDFATYYCAGDYSDDIENAFGGGTKVEIK
B2 showed an IC50 in experiment [1] of 2.34 µg/mL. The EC50 in experiment [2] is 0.24 µg/mL; in experiment [3], 0.37 µg/mL.
